We go through 1 compound from PubChem BioAssay AID1835 (Johns Hopkins Ion Channel Center, 2009).

By UniProt entry, the sequences of proteins in these tests, tags left out.
UniProt Q12809, whole entry: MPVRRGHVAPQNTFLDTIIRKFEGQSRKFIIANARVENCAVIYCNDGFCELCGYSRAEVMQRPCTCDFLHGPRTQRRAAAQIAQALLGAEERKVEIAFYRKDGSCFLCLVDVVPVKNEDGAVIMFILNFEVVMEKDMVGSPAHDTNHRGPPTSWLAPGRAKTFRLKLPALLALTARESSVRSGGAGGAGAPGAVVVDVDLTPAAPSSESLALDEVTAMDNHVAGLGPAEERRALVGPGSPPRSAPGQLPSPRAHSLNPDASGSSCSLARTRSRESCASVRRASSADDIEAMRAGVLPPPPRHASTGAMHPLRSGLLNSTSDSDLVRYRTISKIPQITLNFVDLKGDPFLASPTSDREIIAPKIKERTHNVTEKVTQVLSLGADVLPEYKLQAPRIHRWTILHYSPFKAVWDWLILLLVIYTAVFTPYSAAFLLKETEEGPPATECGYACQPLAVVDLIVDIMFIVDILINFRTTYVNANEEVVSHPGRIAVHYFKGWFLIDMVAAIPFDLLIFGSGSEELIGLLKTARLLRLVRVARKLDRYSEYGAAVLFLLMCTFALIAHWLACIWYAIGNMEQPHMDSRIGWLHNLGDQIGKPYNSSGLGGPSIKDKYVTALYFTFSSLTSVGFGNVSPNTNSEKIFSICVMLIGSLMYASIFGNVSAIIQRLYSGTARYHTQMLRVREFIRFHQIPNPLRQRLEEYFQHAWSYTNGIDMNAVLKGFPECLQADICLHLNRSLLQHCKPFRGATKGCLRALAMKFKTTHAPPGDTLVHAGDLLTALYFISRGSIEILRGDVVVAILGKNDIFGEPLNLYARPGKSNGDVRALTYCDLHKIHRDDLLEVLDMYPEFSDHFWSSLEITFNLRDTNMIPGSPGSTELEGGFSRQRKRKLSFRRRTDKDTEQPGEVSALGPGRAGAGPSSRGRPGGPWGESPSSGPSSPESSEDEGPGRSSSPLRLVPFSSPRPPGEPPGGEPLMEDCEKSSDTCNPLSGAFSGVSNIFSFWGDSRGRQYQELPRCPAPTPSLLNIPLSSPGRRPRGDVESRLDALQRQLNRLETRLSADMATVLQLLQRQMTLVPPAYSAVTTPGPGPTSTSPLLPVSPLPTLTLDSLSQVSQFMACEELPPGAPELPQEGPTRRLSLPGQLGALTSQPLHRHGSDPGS

SMILES strings stand for the structures. The entries are a selection whose mix differs from that of the whole data set. Calls of active or inactive are those of the source.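 How the source made its calls: active means median signal gain over dofetilide-blocked control wells reaching their mean plus 3 SD, so readout 1 at least 0; inactive means the rest.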

For this assay, the target named is Voltage-gated inwardly rectifying potassium channel KCNH2 (Homo sapiens) (UniProt Q12809). The experiment in a line: hERG protection against dofetilide inhibition, confirmation, cell-based, thallium flux, duplicate retest, dofetilide IC70 (AID 1835). Conditions: hERG cell line, FluxOR thallium flux, dofetilide-blocked; at 10 µM; active compounds read high. (In general: The hERG channel carries a current that helps repolarise heart muscle cells.)
For `CCOC(=O)N1CCC(Nc2ccc(OC)cc2)CC1`, the activity increase over dofetilide control, less the hit threshold was inactive: -1%.
